{"source": "paper PMC3171608", "about": "(Bioorganic & medicinal chemistry, 2011)", "tested_on": "chromokinesin", "settings": "panel of mitotic kinesins; data not shown"}
{"molecule": "N[C@H](CO)CSC(c1ccccc1)(c1ccccc1)c1ccccc1", "note": "[Compound 4, (R)-2-amino-3-(tritylthio)propan-1-ol]", "values": [{"measurement": "Inhibitory activity against chromokinesin", "result": "no measurable inhibition detected"}]}
